US10251892B2, “Bicyclic heterocycles as FGFR4 inhibitors” (Incyte Corporation, priority 2015, dated 2019)

Protein sequences, listed by entry. Tags and fused reporters are not part of them. Residues count along the entry.
UniProt P22607, 23-806: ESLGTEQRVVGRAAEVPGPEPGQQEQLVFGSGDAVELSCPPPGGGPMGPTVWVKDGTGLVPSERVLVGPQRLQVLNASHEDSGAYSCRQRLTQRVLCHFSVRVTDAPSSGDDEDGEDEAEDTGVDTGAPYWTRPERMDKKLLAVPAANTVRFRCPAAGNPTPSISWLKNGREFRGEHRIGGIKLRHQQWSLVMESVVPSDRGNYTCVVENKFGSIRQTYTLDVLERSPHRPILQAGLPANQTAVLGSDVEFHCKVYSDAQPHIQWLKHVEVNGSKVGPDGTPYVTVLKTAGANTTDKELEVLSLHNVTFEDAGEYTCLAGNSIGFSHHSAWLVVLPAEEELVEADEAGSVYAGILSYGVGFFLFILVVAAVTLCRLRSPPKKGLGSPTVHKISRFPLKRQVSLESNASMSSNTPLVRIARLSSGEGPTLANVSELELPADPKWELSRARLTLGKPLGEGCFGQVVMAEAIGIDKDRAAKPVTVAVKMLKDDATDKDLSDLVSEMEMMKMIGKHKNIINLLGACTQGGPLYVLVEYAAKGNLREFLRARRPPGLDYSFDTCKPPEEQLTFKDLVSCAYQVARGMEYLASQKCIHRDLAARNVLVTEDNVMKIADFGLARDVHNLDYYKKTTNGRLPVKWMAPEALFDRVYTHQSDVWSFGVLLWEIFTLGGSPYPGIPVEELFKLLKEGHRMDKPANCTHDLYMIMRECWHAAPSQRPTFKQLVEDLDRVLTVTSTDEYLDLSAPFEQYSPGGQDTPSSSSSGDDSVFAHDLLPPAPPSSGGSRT

Target: FGFR3 enzyme (Homo sapiens (Human), UniProt P22607)
Experiment: FGFR Enzymatic Assay (peptide phosphorylation, FRET), FGFR3
Assay type: biochemical
Details: IC50 ratio showing FGFR3 selectivity; pre-incubated for 4 hours
Method: The inhibitor potency of the exemplified compounds was measured in an enzyme assay that measures peptide phosphorylation using FRET measurements to detect product formation. Inhibitors were serially diluted in DMSO and a volume of 0.5 μL was transferred to the wells of a 384-well plate.
GraphPad prism3 was used to analyze the data.

Structure (SMILES): CCN1C(=O)N(c2cc(OC)cc(C(=O)NC)c2F)Cc2cnc(-c3ccc(C4(C#N)CCC4)nc3)cc21 [Example 28, 3-(7-(6-(1-cyanocyclobutyl)pyridin-3-yl)-1-ethyl-2-oxo-1,2-dihydropyrido[4,3-d]pyrimidin-3(4H)-yl)-2-fluoro-5-methoxy-N-methylbenzamide]
- FGFR1/FGFR3: >10
- FGFR4/FGFR3: >25
